Assay results from US20200377563A1.

Legend:
[1] = target: Recombinant TNF-α (R&D Systems, 210-TA-100/CF) (UniProt P01375); experiment: ELISA, TNF-α coated, binder titrated, detection with anti-human IgG antibody-HRP
human IL-17A (human) = human IL-17A (human) (UniProt Q16552); experiment: ELISA, biotinylated IL-17A captured on neutravidin, binder titrated, detection with anti-human TLc antibody-HRP
human IL-23 (human) = human IL-23 (human) (UniProt Q9NPF7); experiment: ELISA, biotinylated IL-23 captured on neutravidin, binder titrated, detection with anti-human NGAL antibody-HRP
[2] = target: Recombinant TNF-α (R&D Systems, 210-TA-100/CF) (UniProt P01375); experiment: dual-binding ELISA: TNF-α coated, fusion titrated, then constant biotinylated IL-23 (1 µg/mL), detection with Extravidin-HRP

Row | EC50 [1] | EC50 (human IL-17A (human)) | EC50 (human IL-23 (human)) | EC50 Dual binding [2] | Substance
1 | 0.16 nM | – | – | – | antibody of SEQ ID NOs: 61 and 62 (antibody; other documents disagree on this pair)
2 | – | 1.25 nM | – | – | fusion protein of SEQ ID NOs: 63 and 62 (bispecific antibody; other documents disagree on this pair)
3 | 0.26 nM | – | 1.2 nM | 1.54 nM | fusion protein of SEQ ID NOs: 64 and 62 (bispecific antibody; other documents disagree on this pair)
